The test deals with T1, human GLP-1 receptor (CHO cells stably transfected with the human GLP-1 receptor) (human), P43220.
T1 chain: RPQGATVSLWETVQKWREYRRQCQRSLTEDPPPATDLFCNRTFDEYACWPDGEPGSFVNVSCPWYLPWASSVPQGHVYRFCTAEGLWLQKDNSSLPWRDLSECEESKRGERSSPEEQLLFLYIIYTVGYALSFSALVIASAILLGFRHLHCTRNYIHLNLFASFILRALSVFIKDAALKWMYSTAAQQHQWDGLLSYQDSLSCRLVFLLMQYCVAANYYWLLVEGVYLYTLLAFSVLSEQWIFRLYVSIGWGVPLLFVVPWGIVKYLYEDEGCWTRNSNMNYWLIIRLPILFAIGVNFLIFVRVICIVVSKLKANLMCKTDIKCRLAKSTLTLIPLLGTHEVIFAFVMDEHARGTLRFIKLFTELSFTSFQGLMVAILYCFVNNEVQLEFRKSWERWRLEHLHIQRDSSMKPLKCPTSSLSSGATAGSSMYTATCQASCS
As to the kind of experiment: displacement of 125I-GLP-1 from intact CHO/GLP-1R cells (Example 9). On the technique in general: Displacement assays read how much labelled ligand stays bound in the presence of the test substance.

What is called IC50 is the concentration that inhibits the measured activity by half. Low readings indicate higher potency, high ones lower potency. Molecule HGEGTFTSDVSSYLEGQAAKEFIAWLVKGRPSSGAP (modifications not checked) [GLP-1 Gly8(7-36) Exendin(31-36)] displayed an IC50 of 129 nM.

HGEGTFTSDVSSYLEGQAAKEFIAWLVKGRPSS (modifications not checked) [GLP-1 Gly8(7-36) Exendin(31-33)] yielded an IC50 of 34.5 nM.
